Laboratory results: patent US20260199350A1, “FLAVONES, QUINOLINONES, QUINAZOLINONES, AND AURONES, AND USES IN CK2-MEDIATED DISEASES” (Salk Institute for Biological Studies, priority 2022, published 2026)

The chains behind the UniProt entries cited, without tags or fusion partners.
UniProt P19784, whole entry: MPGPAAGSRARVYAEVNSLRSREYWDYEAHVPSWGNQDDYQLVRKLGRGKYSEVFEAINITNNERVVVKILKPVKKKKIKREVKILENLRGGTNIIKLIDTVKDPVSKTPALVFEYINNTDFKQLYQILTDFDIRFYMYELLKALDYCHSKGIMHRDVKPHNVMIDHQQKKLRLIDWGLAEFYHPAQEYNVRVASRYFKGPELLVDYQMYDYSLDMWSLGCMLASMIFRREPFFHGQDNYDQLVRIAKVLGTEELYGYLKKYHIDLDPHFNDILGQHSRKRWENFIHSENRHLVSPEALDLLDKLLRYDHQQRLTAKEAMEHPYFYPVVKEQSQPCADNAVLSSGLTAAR

Biological target: T1, CK2A2 (Homo sapiens, UniProt P19784)
T1 construct: purchased Eurofins
Assay: Radiometric kinase assay (Eurofins), CK2A2
Type: biochemical

Window of selectivity for CK2A2 over CK2A1: striking
SMILES: O=c1cc(-c2ccc(O)c(Br)c2)oc2c(Br)cc(Br)cc12 [JKT.464A]
